{
  "sequences": {"note": "By UniProt entry, the sequences of proteins in these tests, tags left out. Residues count along the entry.", "UniProt Q9NZQ7, 19-238 limits assumed": "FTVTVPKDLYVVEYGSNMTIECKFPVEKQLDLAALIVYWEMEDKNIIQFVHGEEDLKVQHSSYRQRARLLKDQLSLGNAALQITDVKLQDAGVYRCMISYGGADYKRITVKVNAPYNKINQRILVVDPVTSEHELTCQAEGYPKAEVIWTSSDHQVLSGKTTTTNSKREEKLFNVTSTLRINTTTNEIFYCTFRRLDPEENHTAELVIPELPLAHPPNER"},
  "source": "patent US20240327387A1",
  "about": "“TRIAZINE DERIVATIVES FOR THE TREATMENT OF TUMOURS AND NEURODEGENERATIVE DISORDERS” (UNIVERSITA' DEGLI STUDI DI MILANO, priority 2021, published 2024)",
  "target": "hPD1/hPD-L1 interaction (Homo sapiens (Human), UniProt Q9NZQ7)",
  "assay": "HTRF assay of PD-1/PD-L1 interaction",
  "format": "binding",
  "details": "Table 1",
  "data": [
    {"smiles": "Cc1c(COc2nc(N[C@@H](Cc3c[nH]cn3)C(=O)O)nc(OCc3cccc(C#N)c3)n2)cccc1-c1ccccc1", "values": [
      {"measurement": "IC50", "result": "> 5", "unit": "µM"}
    ]},
    {"smiles": "CC(=O)NCCNc1nc(OCc2cccc(C#N)c2)nc(OCc2cccc(-c3ccccc3)c2C)n1", "values": [
      {"measurement": "IC50", "result": "> 5", "unit": "µM"}
    ]},
    {"smiles": "CC(=O)NCCNc1nc(C)nc(OCc2cccc(-c3ccccc3)c2C)n1", "values": [
      {"measurement": "IC50", "result": "> 5", "unit": "µM"}
    ]},
    {"smiles": "COC(=O)[C@H](Cc1c[nH]cn1)Nc1nc(OCc2cccc(C#N)c2)nc(OCc2cccc(-c3ccccc3)c2C)n1", "values": [
      {"measurement": "IC50", "result": "> 5", "unit": "µM"}
    ]}
  ]
}
